PubChem BioAssay AID1700 (The Scripps Research Institute Molecular Screening Center, 2009)
Only a part is listed here, and it is no random draw. The source made the active and inactive calls.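 How the source made its calls: active means inhibition above a per-plate limit of that plate's mean compound inhibition plus 3 SD (cut at about 60% in these data); inactive means the rest.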

Experiment: suppression of KLF5 promoter-driven luciferase – DLD-1 cells, luminescence, primary screen (AID 1700);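 further: 0% = DMSO wells and 100% = LY294002 at 200 µM; higher means less KLF5 promoter-driven luciferase light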
Conditions: DLD-1 KLF5 promoter-luciferase reporter, at 5 µM, hits give high values

SMILES	inhibition
CCCOc1ccc(NP(C)(=O)Oc2ccc(Cl)cc2)cc1 (stereo unspecified)	inactive: -8.54%
CN1CCCCC1COC(=O)C1(O)c2ccccc2CCc2ccccc21 (stereo unspecified)	inactive: -9.45%
COc1ccccc1OP(C)(=O)Nc1c(C)cccc1C (stereo unspecified)	inactive: -11.7%
O=C(O)c1cccc(Nc2c([N+](=O)[O-])cc([N+](=O)[O-])cc2[N+](=O)[O-])c1	inactive: -29.8%
CC1=NCCc2c1[nH]c1ccccc21.O=[N+]([O-])c1cc([N+](=O)[O-])c(O)c([N+](=O)[O-])c1	inactive: -6.35%
CCOC(=O)c1ccc(NP(C)(=O)Oc2cc(C)cc(C)c2)cc1 (stereo unspecified)	inactive: 22.7%
Cc1cc(C)cc(OP(C)(=O)Nc2ccc(C)cc2C)c1 (stereo unspecified)	inactive: -0.74%
COc1ccccc1OP(C)(=O)Nc1cccc(Br)c1 (stereo unspecified)	inactive: -14.9%
Cc1ccc(C)c(NP(C)(=O)Oc2ccccc2)c1 (stereo unspecified)	inactive: -12.3%
CP(=O)(Nc1cccc(Br)c1)Oc1ccccc1 (stereo unspecified)	inactive: -29.5%
Cc1cc(C)cc(OP(C)(=O)Nc2ccccn2)c1 (stereo unspecified)	inactive: -36.5%
CP(=O)(Nc1ccccc1F)Oc1ccccc1 (stereo unspecified)	inactive: 13.5%
CC(C)c1ccc(OP(C)(=O)Nc2ccc(SC(F)(F)F)cc2)cc1 (stereo unspecified)	inactive: -19.1%
O=C(OC1CN2CCC1CC2)c1ccc([N+](=O)[O-])cc1 (stereo unspecified)	inactive: -10.9%
O=C(OCCN1CCN(CCOCc2ccccc2)CC1)C(O)(c1ccccc1)c1ccccc1	inactive: -12.9%
CCOC(=O)c1ccc(NP(C)(=O)Oc2ccc(F)cc2)cc1 (stereo unspecified)	inactive: 10.9%
COc1ccc(OP(C)(=O)Nc2ccc(SC(F)(F)F)cc2)cc1 (stereo unspecified)	inactive: 4.51%
CP(=O)(Nc1ccccc1)Oc1ccc(F)cc1 (stereo unspecified)	inactive: -6.97%
O=[N+]([O-])c1cc([N+](=O)[O-])c(OC2CCCCC2O)c([N+](=O)[O-])c1 (stereo unspecified)	inactive: -41.7%

SMILES	inhibition
CCCCCOc1ccc(NP(C)(=O)Oc2ccc(Cl)cc2Cl)cc1 (stereo unspecified)	inactive: -37.6%
CCN(CC)CCCOC(=O)C(O)(c1ccccc1)C1CCCCC1 (stereo unspecified)	inactive: -15.8%
CN(C)CCOC(=O)C(O)(c1ccccc1)C1CCCCC1 (stereo unspecified)	inactive: -41.8%
COc1ccc(NP(C)(=O)Oc2ccccc2OC)cc1 (stereo unspecified)	inactive: -1.23%
COc1ccc(OP(C)(=O)Nc2cccc(Br)c2)cc1 (stereo unspecified)	inactive: -4.29%
O=[N+]([O-])c1ccc(OP2(=O)COCCO2)cc1 (stereo unspecified)	inactive: -12.3%
Cc1cc(-c2cccc3ccccc23)c(C)cn1.O=[N+]([O-])c1cc([N+](=O)[O-])c(O)c([N+](=O)[O-])c1	inactive: -20.5%
O=[N+]([O-])c1cc([N+](=O)[O-])c(NCC2CCS(=O)(=O)C2)c([N+](=O)[O-])c1 (stereo unspecified)	inactive: -19.7%
CCOP(C)(=S)SCC(=O)NC(C)(CC)C(=O)O (stereo unspecified)	inactive: -40.4%
CP(=O)(Nc1ccc(SC(F)(F)F)cc1)Oc1ccc(F)cc1 (stereo unspecified)	inactive: -8.42%
Cc1ccccc1NP(C)(=O)Nc1ccccc1C	inactive: -10.2%
CP(=O)(Nc1ccc2c(c1)OCCO2)Oc1ccccc1 (stereo unspecified)	inactive: -12.2%
O=C(OCCCN1CCCC1)C(O)(c1ccccc1)C1CCCCC1 (stereo unspecified)	inactive: -22.1%
COc1ccccc1OP(C)(=O)Nc1c(C)n(C)n(-c2ccccc2)c1=O (stereo unspecified)	inactive: -29.4%
CCc1ccc(OP(C)(=O)Nc2cccnc2)cc1 (stereo unspecified)	inactive: -12%
CP(=O)(Oc1ccccc1)N1CCOC1=O (stereo unspecified)	inactive: -9.95%
COc1ccc(OP(C)(=O)Nc2ccc(Br)cc2)cc1 (stereo unspecified)	inactive: -19.8%
CCN(CC)CC(O)COC(=O)C(O)(c1ccccc1)C1CCCCC1 (stereo unspecified)	inactive: -12.7%
CN(C)C(=O)c1c([N+](=O)[O-])cc([N+](=O)[O-])cc1[N+](=O)[O-]	inactive: 8.9%

SMILES	inhibition
CC(C)(C)c1ccc(OP(C)(=O)O)cc1	inactive: -27%
COc1ccccc1OP(C)(=O)Nc1ccccc1Br (stereo unspecified)	inactive: -13.9%
CP(=O)(Nc1ccc(Cl)cc1)Oc1ccc(F)cc1 (stereo unspecified)	inactive: 17%
CCOC(=O)c1ccc(NP(C)(=O)Oc2ccc(Cl)cc2)cc1 (stereo unspecified)	inactive: -5.39%
CP(=O)(OC12CC3CC(CC(C3)C1)C2)OC12CC3CC(CC(C3)C1)C2	inactive: -6.45%
COc1ccccc1OP(C)(=O)Nc1ccc(C)c(C)c1 (stereo unspecified)	inactive: -4.11%
COc1ccc(OP(C)(=O)Nc2ccccc2Br)cc1 (stereo unspecified)	inactive: -0.66%
Cc1cc(C)cc(OP(C)(=O)Nc2cccc(C(F)(F)F)c2)c1 (stereo unspecified)	inactive: 9.25%
CP(=O)(OCCOc1ccccc1)OCCOc1ccccc1	inactive: -7.59%
CP(=O)(Nc1ccc(Cl)cc1Cl)Oc1ccccc1 (stereo unspecified)	inactive: -34.9%
Cc1nc2ccc3ccccc3c2o1.O=[N+]([O-])c1cc([N+](=O)[O-])c(O)c([N+](=O)[O-])c1	inactive: -11.6%
COc1ccc(OP(C)(=O)Nc2ccccn2)cc1 (stereo unspecified)	inactive: -18.1%
CN(C)CCOC(=O)C(O)(c1ccccc1)C1CCCC1 (stereo unspecified)	inactive: 21.4%
COc1ccccc1OP(C)(=O)Nc1ccc(Br)cc1 (stereo unspecified)	inactive: 4.62%
COc1ccccc1OP(C)(=O)Nc1ccc(C)cc1C (stereo unspecified)	inactive: -8.75%
CP(=O)(Nc1ccccn1)Oc1ccccc1 (stereo unspecified)	inactive: -37.1%
CCc1ccc(OP(C)(=O)O)cc1	inactive: -5.62%
O=[N+]([O-])c1cc([N+](=O)[O-])c(Nc2ccccn2)c([N+](=O)[O-])c1	inactive: -5.88%
